The assay addresses Human brain β-Secretase (Homo sapiens, UniProt P56817). Description: MBP-C125 enzyme inhibition assay (ELISA detection of β-secretase cleavage of MBP-C125 substrate). The following applies: read-out: IC50 Grouping, pH 4.5, 37° C., 90 minutes. In general terms: An ELISA detects its analyte on a solid surface through an enzyme-linked reagent.

Chains of the proteins cited; added tags and fusions are not shown. Residues count along the entry.
UniProt P56817, 46-501 limits assumed: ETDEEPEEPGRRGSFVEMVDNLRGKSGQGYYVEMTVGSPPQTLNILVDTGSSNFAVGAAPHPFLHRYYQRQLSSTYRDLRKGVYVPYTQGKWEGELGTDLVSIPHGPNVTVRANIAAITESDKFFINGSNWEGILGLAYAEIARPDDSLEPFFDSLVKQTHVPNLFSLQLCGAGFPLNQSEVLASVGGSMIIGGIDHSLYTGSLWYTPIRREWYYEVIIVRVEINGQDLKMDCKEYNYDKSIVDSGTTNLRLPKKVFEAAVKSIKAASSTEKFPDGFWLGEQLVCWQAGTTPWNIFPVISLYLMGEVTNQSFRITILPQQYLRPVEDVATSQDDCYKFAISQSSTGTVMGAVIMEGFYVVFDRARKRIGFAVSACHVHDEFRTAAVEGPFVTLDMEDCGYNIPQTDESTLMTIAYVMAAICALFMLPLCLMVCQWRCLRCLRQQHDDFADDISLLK

Structures are written as SMILES. Some results are limits rather than exact numbers.

Turning to `CC(C)C[C@@H](NC(=O)CC(O)c1ccccc1)[C@H](O)CC(=O)N[C@@H](C(=O)NCc1ccc(C(=O)O)cc1)C(C)C` (stereo partly shown), the IC50 – broadly, the concentration at which inhibition is half-maximal – is over 200 µM.
Next, `CC(C)C[C@H](NC(=O)C(O)c1cccc2ccccc12)[C@@H](O)CC(=O)N[C@H](C(=O)NCc1ccc(C(=O)O)cc1)C(C)C` (single isomer, unassigned): 10 to 99 µM; `CC(C)[C@@H](NC(=O)C[C@@H](O)[C@@H](Cc1cc(F)cc(F)c1)NC(=O)C(O)c1ccc2c(c1)OCCO2)C(=O)N[C@H]1C[C@@H](C(=O)O)C[C@@H](C(=O)O)C1` (stereo partly shown): under 10 µM.
Next, `CC(C)C[C@H](NC(=O)C(O)c1cccc(Oc2ccccc2)c1)[C@@H](O)CC(=O)N[C@H](C(=O)NCc1ccc(C(=O)O)cc1)C(C)C` (stereo partly shown): 10 to 99 µM; `CCN(CC)C(=O)c1cccc(C(=O)N[C@@H](Cc2cc(F)cc(F)c2)[C@@H](O)CC(=O)N[C@H](C(=O)O)C(C)C)c1`: under 10 µM; `CC(C)C[C@H](NC(=O)C(O)c1cccc2ccccc12)[C@@H](O)CC(=O)N[C@H](C(=O)NCc1ccc(C(=O)O)c2ccccc12)C(C)C` (stereo partly shown): over 200 µM.
For the compound `COC(C(=O)N[C@H](CC(C)C)[C@H](O)CC(=O)N[C@@H](C(=O)NCc1ccc(C(=O)O)cc1)C(C)C)(c1ccccc1)C(F)(F)F` (stereo partly shown), the IC50 was over 200 µM.
For the compound `CCCN(CCC)C(=O)c1cc(OC)cc(C(=O)N[C@H](Cc2cc(F)cc(F)c2)[C@H](O)CC(=O)N[C@@H](C(=O)NC2CC(C(=O)O)CC(C(=O)O)C2)C(C)C)c1` (stereo partly shown), the IC50 is under 10 µM.
For the compound `CCCN(CCC)C(=O)c1ccc(C(=O)N[C@H](Cc2cc(F)cc(F)c2)[C@H](O)CC(=O)N[C@@H](C(=O)N[C@H]2C[C@@H](C(=O)O)C[C@@H](C(=O)O)C2)C(C)C)s1`, the IC50 is under 10 µM.
Next, `CC(C)C[C@H](NC(=O)C(O)c1cccc2ccccc12)[C@@H](O)CC(=O)N[C@H](C(=O)NC1CC(C(=O)O)CC(C(=O)O)C1)C(C)C` (stereo partly shown): under 10 µM; `CCNC(=O)[C@H](NC(=O)C[C@@H](O)[C@@H](Cc1cc(F)cc(F)c1)NC(=O)c1cccc(C(=O)N(C)CC)c1)C(C)C`: under 10 µM.
With `CC(C)[C@@H](NC(=O)C[C@@H](O)[C@@H](Cc1cc(F)cc(F)c1)NC(=O)c1ccc2ccccc2c1)C(=O)N[C@H]1C[C@@H](C(=O)O)C[C@@H](C(=O)O)C1`, the IC50 was under 10 µM.
Next, `CC(C)C[C@H](NC(=O)C(O)c1cccc2ccccc12)[C@@H](O)CC(=O)N[C@H](C(=O)NCCCC(=O)O)C(C)C` (stereo partly shown): over 200 µM; `CC(C)[C@@H](NC(=O)C[C@@H](O)[C@@H](Cc1cccc(C(F)(F)F)c1)NC(=O)C(O)c1cccc2ccccc12)C(=O)N[C@H]1C[C@@H](C(=O)O)C[C@@H](C(=O)O)C1` (stereo partly shown): under 10 µM.
Next, `CC(C)[C@H](NC(=O)C[C@H](O)[C@H](Cc1cc(F)cc(F)c1)NC(=O)c1cccc(C(=O)N2CCN(C)CC2)c1)C(=O)NC1CC(C(=O)O)CC(C(=O)O)C1` (stereo partly shown): 10 to 99 µM.
Next, `CC(C)C[C@@H](NC(=O)C(O)c1cccc2ccccc12)[C@H](O)CC(=O)N[C@@H](C(=O)NC1CCC(C(=O)O)CC1)C(C)C` (stereo partly shown): 10 to 99 µM; `CC(C)C[C@H](NC(=O)C(O)c1cccc2ccccc12)[C@@H](O)CC(=O)N[C@H](C(=O)O)C(C)C` (stereo partly shown): over 200 µM.
Turning to `CC(C)C[C@H](NC(=O)[C@H](O)Cc1ccccc1)[C@@H](O)CC(=O)N[C@H](C(=O)NCc1ccc(C(=O)O)cc1)C(C)C`, the 50% inhibitory concentration (IC50) was over 200 µM.
Next, `CC(C)C[C@@H](NC(=O)C(OCc1ccccc1)c1cccc2ccccc12)[C@H](O)CC(=O)N[C@@H](C(=O)NCc1ccc(C(=O)O)cc1)C(C)C` (stereo partly shown): 100 to 200 µM; `CCCN(CCC)C(=O)c1ccc(C(=O)N[C@H](Cc2cc(F)cc(F)c2)[C@H](O)CC(=O)N[C@@H](C(=O)N[C@H]2C[C@@H](C(=O)O)C[C@@H](C(=O)O)C2)C(C)C)o1`: under 10 µM.
Next, `CC(C)C[C@@H](NC(=O)C(O)c1ccccc1Br)[C@H](O)CC(=O)N[C@@H](C(=O)NCc1ccc(C(=O)O)cc1)C(C)C` (stereo partly shown): 10 to 99 µM; `CC(C)[C@@H](NC(=O)C[C@@H](O)[C@@H](Cc1cc(F)cc(F)c1)NC(=O)C(O)c1cccc2ccccc12)C(=O)N[C@@H]1C[C@H](CO)C[C@H](CO)C1` (stereo partly shown): under 10 µM; `CSCCC(O)C(=O)N[C@H](CC(C)C)[C@H](O)CC(=O)N[C@@H](C(=O)NCc1ccc(C(=O)O)cc1)C(C)C` (stereo partly shown): 100 to 200 µM.
Next, `CC(C)[C@@H](NC(=O)C[C@@H](O)[C@@H](Cc1cscn1)NC(=O)C(O)c1cccc2ccccc12)C(=O)NCc1ccc(C(=O)O)cc1` (stereo partly shown): 10 to 99 µM; `CC(C)[C@@H](NC(=O)C[C@@H](O)[C@@H](Cc1cccs1)NC(=O)C(O)c1cccc2ccccc12)C(=O)N[C@H]1C[C@@H](C(=O)O)C[C@@H](C(=O)O)C1` (stereo partly shown): under 10 µM; `CCN(CC)C(=O)c1cccc(C(=O)N[C@@H](Cc2cc(F)cc(F)c2)[C@@H](O)CC(=O)N[C@H](C(=O)NC2CC(C(=O)O)CC(C(=O)O)C2)C(C)C)c1` (stereo partly shown): under 10 µM.
Regarding `CC(C)[C@H](NC(=O)C[C@H](O)[C@H](Cc1cc(F)cc(F)c1)NC(=O)CCCC(=O)N(C)C)C(=O)NC1CC(C(=O)O)CC(C(=O)O)C1` (stereo partly shown), the IC50 is under 10 µM.
Next, `CC(C)[C@@H](NC(=O)C[C@@H](O)[C@@H](Cc1cc(F)cc(F)c1)NC(=O)c1ccccc1)C(=O)NC1CC(C(=O)O)CC(C(=O)O)C1` (stereo partly shown): 10 to 99 µM.
Next, `CCNC(=O)[C@@H](NC(=O)C[C@H](O)[C@H](Cc1cc(F)cc(F)c1)NC(=O)C(O)c1ccccc1-c1ccccc1)C(C)C` (stereo partly shown): under 10 µM.
With `CC(C)C(=O)c1cccc(C(=O)N[C@H](Cc2cc(F)cc(F)c2)[C@H](O)CC(=O)N[C@@H](C(=O)N[C@H]2C[C@@H](C(=O)O)C[C@@H](C(=O)O)C2)C(C)C)c1`, the IC50 is under 10 µM.
Next, `Cc1ccc(C[C@H](NC(=O)C(O)c2cccc3ccccc23)[C@@H](O)CC(=O)N[C@H](C(=O)NCc2ccc(C(=O)O)cc2)C(C)C)cc1` (stereo partly shown): 10 to 99 µM; `CCCN(CCC)C(=O)c1cc(C)cc(C(=O)N[C@H](Cc2cc(F)cc(F)c2)[C@H](O)CC(=O)N[C@@H](C(=O)NC2CC(OC)C(OC)C(OC)C2)C(C)C)c1` (stereo partly shown): under 10 µM.
As for `CC(=O)Nc1cccc(C(=O)N[C@@H](Cc2cc(F)cc(F)c2)[C@@H](O)CC(=O)N[C@H](C(=O)NC2CC(C(=O)O)CC(C(=O)O)C2)C(C)C)c1` (stereo partly shown), the IC50 fell in the range of 10 to 99 µM.
Next, `CC(C)[C@H](NC(=O)C[C@H](O)[C@H](Cc1cc(F)cc(F)c1)NC(=O)c1cccc(C(N)=O)c1)C(=O)NC1CC(C(=O)O)CC(C(=O)O)C1` (stereo partly shown): under 10 µM; `CC(C)C[C@H](NC(=O)[C@@H](O)Cc1ccccc1)[C@@H](O)CC(=O)N[C@H](C(=O)NCc1ccc(C(=O)O)cc1)C(C)C`: 100 to 200 µM.
Next, `CC(C)C[C@H](NC(=O)[C@H](O)c1ccccc1)[C@@H](O)CC(=O)N[C@H](C(=O)NCc1ccc(C(=O)O)cc1)C(C)C`: 100 to 200 µM; `CCN(C)C(=O)c1cccc(C(=O)N[C@H](Cc2cc(F)cc(F)c2)[C@H](O)CC(=O)N[C@@H](C(=O)O)C(C)C)c1`: 10 to 99 µM.

These data come from patent publication US7276484B2, “Dipeptide inhibitors of β-secretase” (Elan Pharmaceuticals, Inc., priority 1999, dated 2007).
